In article PMC7723054:
This is one part of the list.

B1: hsa-mir-7641-1 (structured_RNA)
RNA: GGGACGGCUUAGAAUGUAGCCUUGCAACGGUGUACGAAGUUUCAGCAAGCAGGGUUGGGCCUGGUUGCUGAAGCUUCGUGCAC
B2: hsa-mir-5693 (structured_RNA)
RNA: GGGAGUAACCGUCACGUGUGCAGUCGAUGGUGUACGAAGUUUCAGCUGCUGUGAGCUAGCCAGCAGGCUGAAGCUUCGUGCAC
B3: hsa-mir-1972-1_1972-2 (structured_RNA)
RNA: GGGAAUAAUACUGUAAGGGAGCCUGGAUGGUGUACGAAGUUUCAGCUUAAAUGUGUCAUUUAAAAAUUCAGGCUGAAGCUUCGUGCAC
B4: hsa-mir-3129 (structured_RNA)
RNA: GGGAGACACGCAACGUAAGACGAUAACCGGUGUACGAAGUUUCAGCGUUUGCCUGUUAAUGAAUUCAAACGCUGAAGCUUCGUGCAC
B5: hsa-mir-6723 (structured_RNA)
RNA: GGGAGUAGUUUUAGACGAAGUAACCACCGGUGUACGAAGUUUCAGCGGGCAUUCCGGAUAGGCCGAGAAAGUGUUGGCUGAAGCUUCGUGCAC
B6: hsa-mir-516b-2 (structured_RNA)
RNA: GGGAUGAAAUAUGCGUGUCAAAGCUCUGGGUGUACGAAGUUUCAGCAGCACUUUGUGUUUUGUGAAAGAAAGUGCUGCUGAAGCUUCGUGCAC
B7: hsa-mir-4498 (structured_RNA)
RNA: GGGACGAUUAAGGGAGAAUAUACCGCCUGGUGUACGAAGUUUCAGCGCUGCAGAUCUUUGUCUAAGCAGCGCUGAAGCUUCGUGCAC
B8: hsa-mir-758 (structured_RNA)
RNA: GGGAAUAAAAUGGGGAGCGGUUUACAGAGGUGUACGAAGUUUCAGCCACACGCUUUAUUUGUGCCGUUUGGCUGAAGCUUCGUGCAC
B9: hsa-mir-519e (structured_RNA)
RNA: GGGAGCAGUAUCCUGCAGAUCAUGCUUGGGUGUACGAAGUUUCAGCACUUUCUGUUUGAAAGAAAACAAAGUGCUGAAGCUUCGUGCAC
B10: hsa-mir-7160 (structured_RNA)
RNA: GGGAUAUCGAGGUGCAAGGCUCGAAUAAGGUGUACGAAGUUUCAGCUGUGCCCCGUACCGGACAGGGCUGAAGCUUCGUGCAC
B11: hsa-mir-612 (structured_RNA)
RNA: GGGAAGGUCCUUUAUACGGCAGACAUCCGGUGUACGAAGUUUCAGCCCUUAGCACUAGCAGGAGGGCUGAAGCUUCGUGCAC
B12: hsa-mir-8089 (structured_RNA)
RNA: GGGAAUCGCGUAGACGUAAUUAGACGACGGUGUACGAAGUUUCAGCGGGGGCAGGCUGCCACCUCCUGGCUGAAGCUUCGUGCAC

Key:
Experiment in all cases: FOREST: bead pull-down of RNA structure library v1, barcode microarray; U1A/LIN28A: 20 mM HEPES pH 7.5, 80 mM KCl, 20 mM NaCl, 10% glycerol, 2 mM DTT, 0.1 ug/uL BSA, 4 C; BG4/CIRBP/DHX36: 10 mM Tris-HCl pH 7.5, 100 mM KCl (or LiCl),; high values mean tight binding
U1A = U1A (Homo sapiens, UniProt P09012)
LIN28A = target: T1, LIN28A (human?, UniProt Q9H9Z2 1-209)
T1 sequence: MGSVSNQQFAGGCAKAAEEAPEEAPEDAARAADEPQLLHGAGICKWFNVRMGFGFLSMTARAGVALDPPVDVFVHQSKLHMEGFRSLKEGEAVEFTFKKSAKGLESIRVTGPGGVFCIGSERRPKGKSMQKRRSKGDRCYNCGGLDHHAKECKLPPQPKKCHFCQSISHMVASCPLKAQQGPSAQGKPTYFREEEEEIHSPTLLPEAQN

CIRBP = target: T2, CIRBP (Homo sapiens, UniProt Q14011 1-172)
T2 sequence: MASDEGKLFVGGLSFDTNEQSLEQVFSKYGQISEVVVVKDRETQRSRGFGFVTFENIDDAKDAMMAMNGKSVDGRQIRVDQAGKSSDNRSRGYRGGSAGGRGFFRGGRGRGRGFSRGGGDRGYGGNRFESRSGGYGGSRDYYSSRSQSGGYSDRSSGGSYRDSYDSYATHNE

DHX36 = target: T3, DHX36 (Homo sapiens, UniProt Q9H2U1 1-1008)
T3 sequence: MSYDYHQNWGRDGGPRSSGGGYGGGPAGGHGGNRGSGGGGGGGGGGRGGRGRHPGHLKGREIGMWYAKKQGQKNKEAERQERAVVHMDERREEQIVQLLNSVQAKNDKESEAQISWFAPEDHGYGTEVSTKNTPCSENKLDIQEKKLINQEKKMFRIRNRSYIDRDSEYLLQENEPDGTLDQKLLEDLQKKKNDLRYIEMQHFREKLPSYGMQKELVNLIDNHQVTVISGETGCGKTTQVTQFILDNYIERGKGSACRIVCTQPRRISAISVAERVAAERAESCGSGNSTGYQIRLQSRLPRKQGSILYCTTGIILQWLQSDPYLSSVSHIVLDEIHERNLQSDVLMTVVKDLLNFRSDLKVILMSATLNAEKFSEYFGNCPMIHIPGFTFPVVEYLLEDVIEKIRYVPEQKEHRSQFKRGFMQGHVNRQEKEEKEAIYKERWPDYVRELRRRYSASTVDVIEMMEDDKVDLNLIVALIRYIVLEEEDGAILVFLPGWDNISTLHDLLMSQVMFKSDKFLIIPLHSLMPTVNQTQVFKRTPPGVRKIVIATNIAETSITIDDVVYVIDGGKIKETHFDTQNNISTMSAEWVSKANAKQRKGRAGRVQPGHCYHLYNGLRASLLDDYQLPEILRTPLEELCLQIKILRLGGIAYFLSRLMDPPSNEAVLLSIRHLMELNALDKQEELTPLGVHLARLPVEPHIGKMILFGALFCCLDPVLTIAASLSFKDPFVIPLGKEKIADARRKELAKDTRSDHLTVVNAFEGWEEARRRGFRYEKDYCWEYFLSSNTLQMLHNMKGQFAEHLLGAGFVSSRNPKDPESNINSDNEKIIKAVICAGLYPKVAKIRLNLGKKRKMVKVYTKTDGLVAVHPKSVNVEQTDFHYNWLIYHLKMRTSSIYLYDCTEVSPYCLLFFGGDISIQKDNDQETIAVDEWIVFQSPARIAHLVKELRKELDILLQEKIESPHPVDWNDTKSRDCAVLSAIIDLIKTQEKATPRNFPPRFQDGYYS

Binder	binding signal (U1A) [z-score]	binding signal (LIN28A) [z-score]	binding signal (CIRBP) [z-score]	binding signal (DHX36) [z-score]
B1	0.0635	-0.976	-0.791	-0.211
B2	0.0634	-1.39	-1.26	0.187
B3	0.0618	0.875	0.0639	0.344
B4	0.0611	-0.109	-0.026	1.73
B5	0.0575	0.878	0.567	0.256
B6	0.054	1.48	0.322	0.407
B7	0.0522	-1.03	0.301	1.08
B8	0.0516	0.448	-0.474	0.301
B9	0.0512	-0.676	-0.419	0.0214
B10	0.0491	-0.326	-0.802	1.36
B11	1.71	-0.306	-0.0592	-0.953
B12	0.0486	0.0571	1.53	0.747
